“Also recorded” adds a separate entry of the source.
Tests used:
[1] = test system: human neuroblastoma SHSY5Y cells; assay: Neuroprotection MTT assay in SHSY5Y cells; assay type: cell-based; settings: for number of viable cells compared to either DMTU or 4-H-tempol: 24 h; for protection from TBHP, cocaine and methamphetamine induced oxidative stress and cell death: SHSY5Y cells, FIGS. 5B-5C, N=3
Protocol: (§1) Neuroprotection activities: Either mouse hippocampal neural HT22 cells or human neuroblastoma SHSY5Y cells were cultured, seeded in 96-well plates and treated with either TBHP or cocaine or METH followed by addition of SA-30 or SA-31 at different concentrations and incubated for 24 h. MTT assay was used for measuring viable cells at absorbance of 490 nm. […] The result was compared with two known anti-oxidant compounds dimethyl thiourea (DMTU) and 4-hydoxy tempol (4-H-tempol). […] (FIGS. 5C-5D).

[2] = test system: mouse hippocampal neural HT22 cells; assay: Neuroprotection MTT assay in HT22 cells; assay type: cell-based; settings: FIG. 5A, N=3
Protocol: as §1

methionine synthase (MS) = assay: Intracellular methionine synthase ELISA of SH-SY5Y cell lysate; assay type: cell-based, human; settings: for MS activity compared to TBHP treated cells: TBHP 65 μM, compound 100 μM, FIG. 6A
Protocol: Cells were treated with either TBHP (65 μM), cocaine (1.5 mM) or METH (3.35 mM) followed by co-treatment with SA-30 and SA-31 (100 μM) for 24 hours. Cell lysates were collected and quantified with Pierce™ BCA Protein Assay. Level of intracellular methionine synthase (MS) were assessed using ELISA of the cell lysate.

[3] = test system: glutathione peroxidase (GPx); assay: Glutathione peroxidase ELISA in SH-SY5Y cells; assay type: cell-based, human; settings: cocaine 1.5 mM + SA-31 co treatment; 24 hours
Protocol: (§2) Cells were treated with either cocaine (1.5 mM) or METH (3.35 mM) followed by co-treatment with SA-31 for 24 hours. Cell lysates were collected and quantified with Pierce™ BCA Protein Assay. Level of intracellular SOD, catalase, glutathione peroxidase and total antioxidant concentration were assessed using ELISA kits.

[4] = Brain bioavailability after single intraperitoneal injection, HPLC/LC/MS; assay type: in vivo, mouse
Protocol: The bioavailability of compound SA-31 was evaluated in adult, aged mouse (8 months old) and quantified the concentration of drug at different time points after single intraperitoneal injection. The goal was to understand whether the compound has ability to cross blood brain barrier and reach to the different region of the brain tissue systemically. Total 16 mice were used for this experiment. A single dose of SA-31 formulated in PBS was dosed intraperitoneally (10 mg/kg) to the C57Bl/6 J mice (n=4 per group, 8 months old, M+F) and were sacrificed at four different time points (0.5 h, 1 h, 4 h, and 8 h). The brain was dissected into 6 different regions (cortex, midbrain, hippocampus, cerebellum, striatum and hindbrain) and the samples were stored at −80° C. for further processing and HPLC analysis. An HPLC/LC/MS method was developed in house to quantify the concentration of SA-31 in the plasma and brain samples using Waters Atlantis HILIC Silica 3 μm, 3.0×50 mm in Agilent 1260 infinity HPLC coupled with 6460 triple Quad LC/MS. Water containing 0.1% formic acid was used as mobile phase A and acetonitrile containing 0.1% formic acid was used as mobile phase B to detect the compound and internal standard. The tissue samples were extracted, concentrated using SpeedVac and reconstituted with 50:50 isopropyl and water. The samples were filtered through 0.45-micron syringe filter and 50 μL of the sample was injected in the HLPC machine. Method validation was performed with ten serially diluted concentrations of SA-31 to generate a standard curve with >100% accuracy. The lower quantification detection range was set to be 1 ng/ml

SW mice = assay: Cocaine-conditioned locomotion, expression test; assay type: in vivo, mouse; settings: for expression of increased (cocaine-conditioned) locomotor activity: Paired mice, cocaine 15 mg/kg 24 h earlier
Protocol: SA-31 blocks cocaine-conditioned locomotion. The goal of this pilot study was to determine if the novel small molecule was effective in preventing cocaine-conditioned motor activity of SW mice. […] Cocaine results in enhanced locomotor activity in mice. Mice that were previously injected with 15 mg/kg cocaine, either in their home cages (Unpaired) or in the novel test environment (Paired), were tested 24 h later. Mice were either administered vehicle [Unpaired-vehicle or Paired-vehicle] or dimethyl thiourea (DMTU), a known hydroxyl radical scavenger or compound SA-31 prior to testing [Paired-1 mg/kg, 3 mg/kg, 5 mg/kg or 10 mg/kg]. […] It is yet to be determined if a high dose of SA-31 has leea to inactivation of MS in vivo by pharmacokinetic studies.

catalase (CAT) = assay: Catalase ELISA in SH-SY5Y cells; assay type: cell-based, human; settings: cocaine 1.5 mM + SA-31 co treatment; 24 hours
Protocol: as §2

SOD = assay: Intracellular SOD ELISA in SH-SY5Y cells; assay type: cell-based, human; settings: 24 h
Protocol: as §2

IL-1β cytokine = IL-1β cytokine ELISA of SHSY-5Y supernatants; assay type: cell-based, human
Protocol: Briefly, SHSY-5Y cells were cultured, seeded in 96-well plates, and treated with either cocaine (1.5 mM) or MEH (3.5 mM) subsequently followed by co-treatment with SA-31 at different concentrations (10 μM, 100 μM), and incubated for 24 h. Supernatants were collected and the IL-1β cytokine concentration was assessed using ELISA kit and following manufacturer instruction (RayBiotech). […] N=3, p<0.05; p<0.01, One-way ANOVA, GraphPad Prism.

SH-SY5Y neural cells = assay: Total antioxidant concentration in SH-SY5Y cells; assay type: cell-based, human; settings: FIG. 7E
Protocol: as §2

SH-SY5Y cells = assay: Mitochondrial bioenergetics, Seahorse XFe24 (OCR, ECAR); assay type: cell-based, human; settings: vs untreated control; 24 h; 1, 10, 100 μM tested
Protocol: In a separate experiment, 60,000 cells/well of SH-SY5Y cells were seeded in a 24 well plate and treated for 24 h with SA-31 (1 μM, 10 μM, and 100 μM). After 24 h, the mitochondrial complex inhibitors and uncoupling reagents (oligomycin, FCCP, rotenone/antimycin A) were added and the plate was analyzed for changes in oxygen consumption rate (OCR) and extracellular acidification rate (ECAR) using the Seahorse XFe24 analyzer following the manufacturer's instructions.

[5] = cocaine induced cell death model

CC1(C)CC(NC(=S)NC2CCSCC2)CC(C)(C)N1[O] [SA-30, 1-(tetrahydro-2H-thiopyran-4-yl)-3-(2,2,6,6-tetramethyl-1-(11-oxidaneyl)piperidin-4-yl)thiourea]
number of viable cells compared to either DMTU or 4-H-tempol ([1]; METH induced cell death model): increased the number of viable cells
protection from TBHP, cocaine and methamphetamine induced oxidative stress and cell death [1]: protects neural cells
number of viable cells compared to either DMTU or 4-H-tempol [1, 5]: increased the number of viable cells
protection from TBHP, cocaine and methamphetamine induced oxidative stress and cell death [2]: protects neural cells
MS activity compared to TBHP treated cells (methionine synthase (MS); 24 hours): significant increase

CC1(C)CC(NC(=S)NC2CCS(=O)(=O)CC2)CC(C)(C)N1[O] [SA-31, 1-(1,1-dioxidotetrahydro-2H-thiopyran-4-yl)-3-(2,2,6,6-tetramethyl-1-(11-oxidaneyl)piperidin-4-yl)thiourea]
GPx activity [3]: significantly retrieved; also recorded: significantly increased; also recorded: No significant changes
time of peak concentration, cortex ([4]; 10 mg/kg intraperitoneal, FIG. 10A): 8 h
time of peak concentration, midbrain ([4]; 10 mg/kg intraperitoneal, FIG. 10B): 8 h
time of peak concentration, hippocampus ([4]; 10 mg/kg intraperitoneal, FIG. 10C): 8 h
time of peak concentration, cerebellum ([4]; 10 mg/kg intraperitoneal, FIG. 10D): 30 min
time of peak concentration, striatum ([4]; 10 mg/kg intraperitoneal, FIG. 10E): 4 h
time of peak concentration, hindbrain ([4]; 10 mg/kg intraperitoneal, FIG. 10F): 1 h
bioavailability in mouse brain ([4]; after systemic dosing): bioavailable
number of viable cells compared to either DMTU or 4-H-tempol ([1]; METH induced cell death model): increased the number of viable cells
protection from TBHP, cocaine and methamphetamine induced oxidative stress and cell death [1]: protects neural cells
number of viable cells compared to either DMTU or 4-H-tempol [1, 5]: increased the number of viable cells
expression of increased (cocaine-conditioned) locomotor activity (SW mice; 1 mg/kg prior to testing): significantly inhibited
expression of increased (cocaine-conditioned) locomotor activity (SW mice; 3 mg/kg prior to testing): significantly inhibited
potency relative to DMTU (SW mice; cocaine-conditioned locomotion, effective doses compared): more potent than DMTU
CAT activity (catalase (CAT)): significantly increased
SOD activity vs METH treated cells (SOD; METH 3.35 mM + SA-31 100 μM): significant increase; also recorded: increased
SOD activity vs cocaine treated cells (SOD; cocaine 1.5 mM + SA-31 100 μM): significant increase; also recorded: increased
protection from TBHP, cocaine and methamphetamine induced oxidative stress and cell death [2]: protects neural cells
intracellular MS activity vs METH treated cells (methionine synthase (MS); METH 3.35 mM + 100 μM, 24 hours, FIG. 6C): significant increase
MS activity compared to TBHP treated cells (methionine synthase (MS); 24 hours): significant increase
MS enzyme (methionine synthase (MS); TBHP experiment, 1000 μM): significant increase
effect on MS (methionine synthase (MS); cocaine 1.5 mM + SA-31 100 μM, 24 hours, FIG. 6B): no significant effect
IL-1β (IL-1β cytokine; METH 3.5 mM + SA-31, 24 h): trend in decrease
cocaine induced increase in IL-1β (IL-1β cytokine; cocaine 1.5 mM + SA-31 (10 M as printed), 24 h): significantly decreased
inflammatory cytokine IL-1β (IL-1β cytokine; human SH-SY5Y neural cells, FIGS. 8A-B): decreases
overall antioxidant concentration (SH-SY5Y neural cells; SA-31 in combination with cocaine): increased
overall antioxidant concentration (SH-SY5Y neural cells; only SA-31): increased
glycolytic activity (SH-SY5Y cells): increases
mitochondrial respiration (SH-SY5Y cells): increases

From US20260226036A1, “THIOUREA ANTIO[…] NEURO[…]” (priority 2023, published 2026)
